This assay addresses T1, Sterol O-acyltransferase 1 (Rattus norvegicus, UniProt O70536).
T1 sequence (O70536 whole entry): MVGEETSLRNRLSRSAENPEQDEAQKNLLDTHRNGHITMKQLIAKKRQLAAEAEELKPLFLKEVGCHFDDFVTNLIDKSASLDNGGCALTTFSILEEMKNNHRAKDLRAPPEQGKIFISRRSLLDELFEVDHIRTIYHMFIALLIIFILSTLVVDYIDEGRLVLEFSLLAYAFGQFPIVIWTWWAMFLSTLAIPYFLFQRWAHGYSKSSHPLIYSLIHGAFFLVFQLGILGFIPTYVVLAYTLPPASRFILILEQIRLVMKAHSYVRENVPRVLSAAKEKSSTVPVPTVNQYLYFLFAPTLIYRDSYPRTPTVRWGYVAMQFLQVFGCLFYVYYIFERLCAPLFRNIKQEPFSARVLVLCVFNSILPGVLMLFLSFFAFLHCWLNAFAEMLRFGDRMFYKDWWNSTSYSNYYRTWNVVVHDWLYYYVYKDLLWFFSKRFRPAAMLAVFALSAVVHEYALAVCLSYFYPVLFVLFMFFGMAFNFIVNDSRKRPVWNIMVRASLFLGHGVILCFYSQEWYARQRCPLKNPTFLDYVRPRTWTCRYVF
The assay can be described thus: In vitro Acyl coenzyme A:cholesterol acyltransferase inhibition in hepatic microsomes isolated from cholesterol-fed rats. More on the design: species or system Liver. Summed up: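 Hepatic microsomes from cholesterol-fed rats (LAI screen); ACAT inhibition reported as IC50.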
As for `CCCCCCCCCCCCCCCCOC(=O)C(C(=O)Nc1c(C(C)C)cccc1C(C)C)c1ccccc1` (stereo not given), the IC50 was 37 nM.
For the molecule `CCCCCCCCOC(=O)C(C(=O)Nc1c(C(C)C)cccc1C(C)C)c1ccccc1` (stereo not given), it took 13 nM to reach half-maximal inhibition (IC50).
`CCCCCCCCCCCCC(C)OC(=O)C(C(=O)Nc1c(C(C)C)cccc1C(C)C)c1ccccc1` (stereo not given) had an IC50 of 22 nM.
`CCCCC(C)(C)OC(=O)C(C(=O)Nc1c(C(C)C)cccc1C(C)C)c1ccccc1` (stereo not given) displayed an IC50 of 11 nM.
`CCCCCCCCCCCCOC(=O)C(C(=O)Nc1c(OC)cc(OC)cc1OC)c1ccccc1` (stereo not given) displayed an IC50 of 13 nM.

By IC50 is commonly meant the point on the concentration scale where inhibition reaches its midpoint. A high value points to lower potency.

(Values after ChEMBL document CHEMBL1131340, “alpha-Substituted malonester amides: tools to define the relationship between ACAT inhibition and adrenal toxicity” (J Med Chem, 1998).)
